Test results as given in patent US20240294543A1, “CYCLOHEPTA-THIENO-DIAZEPINE DERIVATIVES AS GABA A GAMMA1 PAM” (Hoffmann-La Roche Inc., priority 2021, published 2024).

Columns and labels:
[1] = target: human GABAA α2β2γ1 receptor (Homo sapiens (Human), UniProt P47869+Q8N1C3); assay: Radioligand binding assay, competition for [3H]RO7239181, γ1-containing GABAA subtypes; conditions: read-out: Ki h-GABAA α2β2γ1; Table 3, reference compounds and examples
[2] = target: human GABAA α1β3γ2 receptor (Homo sapiens (Human), UniProt P14867+P18507); assay: Radioligand binding assay, competition for [3H]Flumazenil, γ2-containing GABAA subtypes

Cc1nnc2n1-c1sc3c(c1C(c1ccccc1Cl)=NC2)CCCC3
Ki [1]: 52.6 nM | γ2/γ1 Selectivity Ratio ([2]; Ki α1β3γ2 (nM)/Ki α2β2γ1 (nM), Table 3): 0.922 | LogSel ([2]; Log[Ki α1β3γ2 (nM)/Ki α2β2γ1 (nM)], Table 3): −0.035 | Ki ([2]; read-out: Ki h-GABAA α1β3γ2, Table 3, reference compounds and examples): 48.5 nM
